The values that follow come from US11844811B2, “Methods and compositions for alleviating respiratory dysfunction” (MYFITSTRIP LLC, priority 2018, dated 2023).

Read-outs that look alike come from different tables or passages of the source.

For the data set the following is noted: subject 2, 1,000 mg KNO3 (12 mgNO3/Kg) at 10:00.

In the case of `O=[N+]([O-])[O-].[K+]` [KNO3, potassium nitrate], the “Salivary NO2” value is, setting by setting: (time 1:00PM) <435 µM; (time 11:00) 435 µM.
